# TDP1 cell noCPT – qHTS for Inhibitors of human tyrosyl-DNA phosphodiesterase 1 (TDP1): qHTS in cells in absence of CPT; DT40 Tdp1-/- hTDP1 cells, no CPT, ATP luminescence, 48 h; Potency, µM (top dose mostly 46.2 µM), inactives show top-dose activity change, negative = growth inhibition, hits mostly inhibitors; 420,000 tested, 15% active; AID 686978, 2013; note: potency is the fitted concentration of half-maximal effect; % is set by controls: 0 for no effect and ±100 for the full control effect; nearly all actives have a fitted effect of over 55% in size
#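 Readout: luminescence from CellTiter-Glo after 30 min in the dark at RT. Cells: DT40 Tdp1-/- with stable hTDP1, 400/well. Exposure: compounds alone, ≥48 hr, 37 °C.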
# miR-21 reporter – miR-21 reporter, rising signal; HeLa miR-21 FLuc reporter, luciferase, 48 h; Potency, µM (titrated, usually from 38.3 µM), for the others: at the top dose reporter change, positive = more light; 340,000 tested, under 10 active; AID 2288; active = well fitted rising curve with a large enough effect; inconclusive = small, poorly fitted or top-dose-only effect; inactive = no such curve, though single readings can be large or run the other way;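 also: % of control where 0% means no effect; miR-21 action dims this reporter so a rising signal means less miR-21 action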
#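 HeLa cells endogenously expressing miR-21, stably carrying CMV-driven firefly luciferase with a downstream miR-21 binding site, 2000 cells/well. Titrations up to approximately 40 uM, 48 hours; luciferase luminescence read.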
# TDP1 block – inhibitors of human tyrosyl-DNA phosphodiesterase TDP1; Q9NUW8; recombinant TDP1, AlphaScreen DNA substrate cleavage; Potency, µM (series often up to 130 µM), inactives show at the highest dose activity change, negative = inhibition, most hits filed as inhibitors; 350,000 tested, 0.28% active; AID 485290; note: potency is the fitted concentration of half-maximal effect; % is set by controls: 0 for no effect and ±100 for the full control effect; nearly all actives have a fitted effect of over 40% in size
#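 Enzyme-compound mixtures sat 15 min at room temperature, followed by a 5 min reaction with 15 nM final substrate and 10 min with AlphaScreen beads. Recombinant human Tdp1 was used at 1 nM final.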
# uPA generation – cell surface uPA generation inhibition | 330,000 tested, 0.31% active | Potency, µM (top dose mostly 38.3 µM), for the others: at the top dose activity change, negative = inhibition, actives largely listed as inhibitors | cell surface uPA generation assay, qHTS; active = well fitted inhibition curve with a large enough effect; inconclusive = small, poorly fitted or top-dose-only effect; inactive = no such curve, though single readings can be large or run the other way; tested in mouse RAW 264.7 cells; note: potency is the fitted concentration of half-maximal effect; % is set by controls: 0 for no effect and ±100 for the full control effect; nearly all actives have a fitted effect of over 55% in size
# TDP1 cell CPT – growth inhibition of DT40 Tdp1-/-;hTDP1 cells with camptothecin (screen for TDP1 inhibitors); 420,000 tested, 12% active; Potency, µM (highest dose often 46.2 µM), inactives show at the highest dose activity change, negative = growth inhibition, most hits filed as inhibitors; chicken DT40 Tdp1-/-;hTDP1 cells + 20 nM CPT, ATP luminescence, 48 h; note: potency is the fitted concentration of half-maximal effect; % is set by controls: 0 for no effect and ±100 for the full control effect; nearly all actives have a fitted effect of over 55% in size
#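 Cell growth measured by CellTiter-Glo luminescence after a minimum 48 h, 37 C compound exposure with 20 nM CPT in Tdp1-knockout DT40 cells stably expressing hTDP1, seeded 400/well; qHTS titration format.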
# Active calls of the source: *; ? = inconclusive; . = no result; ! = not confirmed by another sample; [ ] = another dose, or the depositor's remark. Hits are enriched below; roughly 16% of the tested compounds scored in any of these assays. Unless noted, calls come from the whole dose curve; as a rule, active = well fitted curve in the direction sought with a large enough effect; inconclusive = small, poorly fitted or top-dose-only effect, or another doubt; inactive = no such curve, though single readings can be large; an effect the other way counts as inactive or inconclusive.
SMILES,TDP1 cell noCPT,miR-21 reporter,TDP1 block,uPA generation,TDP1 cell CPT
Cc1ccc2c(c1)[C@H]1[C@H](CO2)[C@H](c2ccccc2)[C@]2(C)C(=O)Nc3cc(F)ccc3C(=O)N12,?,.,3%,7.1µM*,?
C[C@@]12C(=O)Nc3cc(F)ccc3C(=O)N1[C@H]1c3cc(Br)ccc3OC[C@@H]1[C@@H]2c1ccccc1,?,.,1%,?,?
COc1ccc2c(c1)[C@H]1[C@H](CO2)[C@H](c2ccccc2)[C@]2(C)C(=O)Nc3ccc(C)cc3C(=O)N12,?,.,5%,?,?
COc1ccc2c(c1)[C@H]1[C@H](CO2)[C@H](c2ccccc2)[C@]2(C)C(=O)Nc3ccc(Cl)cc3C(=O)N12,?,.,.,-25%,18µM*
Cc1ccc2c(c1)[C@H]1[C@H](CO2)[C@H](c2ccccc2)[C@]2(C)C(=O)Nc3ccc(Cl)cc3C(=O)N12,15µM*,.,0%,?,?
O=C(NC1CCCCC1)c1cccnc1Sc1ccccc1Cl,0%,-3%,15%,-5%,0%
COc1ccc2c(c1)C(=O)N1[C@H]3c4cc(C)ccc4OC[C@@H]3[C@H](c3ccccc3)[C@]1(C)C(=O)N2,10µM*,.,0%,?,7.3µM*
COc1ccc2c(c1)[C@H]1[C@H](CO2)[C@H](c2ccccc2)[C@]2(C)C(=O)Nc3cc(OC)c(OC)cc3C(=O)N12,21µM*,.,6%,?,?
COc1ccc2c(c1)[C@H]1[C@H](CO2)[C@H](c2ccccc2)[C@]2(C)C(=O)Nc3ccc(F)cc3C(=O)N12,?,.,3%,?,?
CCc1ccccc1NC(=O)CN1CCN(CC(=O)Nc2ccc3c(c2)OC2(CCCCC2)O3)CC1,4.1µM*,.,.,12%,18µM*
Cc1cc(C)nc(N2CCC(C(=O)NCc3cccs3)CC2)n1,2%,-2%,4%,13%,2%
CCOC(=O)c1cc(-c2ccccc2)n(-c2cccc(C(=O)Nc3cccc(C)c3)c2)c1C,23µM*,11%,9%,.,?
CCOC(=O)c1cc(-c2ccccc2)n(-c2cccc(C(=O)N(CC)c3ccccc3)c2)c1C,18µM*,27%,1%,.,15µM*
CCOC(=O)c1cc(-c2ccccc2)n(-c2cccc(C(=O)Nc3ccc(OCC)cc3)c2)c1C,?,14%,-8%,.,?
CCOC(=O)c1cnn(-c2ccc(C(=O)Nc3cccc(C(C)=O)c3)cc2)c1N,?,-1%,3%,.,2.1µM*
COc1cccc(OC)c1C(=O)Nc1ccccc1Sc1ccccc1,?,.,.,-5%,?
Cc1cc(C(=O)CSc2nc3ccccc3c(=O)[nH]2)c(C)n1CC1CCCO1 (stereo not given),10µM*,3%,3%,-5%,13µM*
Cc1cc(C(=O)CSc2nnc(Nc3ccccc3)s2)c(C)n1CC1CCCO1 (stereo not given),?,1%,5%,6%,12µM*
Cc1cc(C(=O)CSc2nc3ccccc3c(=O)n2C)c(C)n1CC1CCCO1 (stereo not given),.,?,2%,.,.
C=C1CC23C[C@H]4[C@@H]5[C@@]6(C)C[C@H](OC(=O)c7ccccc7)[C@@H](OC(C)=O)[C@]57[C@@H]2[C@@H](OC(C)=O)[C@H]1[C@@H](O)[C@H]3[C@H]7N4C6,.,.,10%[56.1 µM],.,.
COC(=O)c1c(C(=O)OC)c(-c2ccc(Cl)c(Cl)c2)n2c1CCC2,?,-1%,6%,12%,21µM*
COC(=O)c1c(C(=O)OC)c(-c2ccc(C)cc2)n2c1CCC2,-26%,-1%,.,.,-14%
CC(C)OC(=O)c1ccc2ccc(-c3ccccc3)nc2c1,16µM*,.,.,.,?
CC(C)NC(=O)C1(C)CN(S(C)(=O)=O)CC(=O)N1CCc1ccccc1F (stereo not given),-7%,.,.,.,2%
COc1cccc(N2CC(O)=C(c3ccccc3)C2=N)c1,-4%,-7%,-1%,-1%,-9%

# Further results:
SMILES,TDP1 cell noCPT,miR-21 reporter,TDP1 block,uPA generation,TDP1 cell CPT
Cc1ncsc1CCOC(=O)C1C2CC3CC(C2)CC1C3 (stereo not given),23µM*,-18%,-1%,-2%,?
Cn1nc(C(=O)N2CCN(c3ccccc3)CC2)c2c1-c1ccccc1S(=O)(=O)C2,?,-3%,4%,-2%,?
Cc1ccc2c(c1)-c1c(c(C(=O)N3CCN(c4cc(Cl)ccc4C)CC3)nn1C)CS2,18µM*,-3%,11%,.,?
Cc1cccc(N2CCN(C(=O)c3nn(C)c4c3CS(=O)(=O)c3ccccc3-4)CC2)c1C,16µM*,0%,5%,11%,13µM*
COc1cccc(N2CCN(C(=O)c3nn(C)c4c3CSc3ccc(C)cc3-4)CC2)c1,?,-9%,4%,.,?
CCN1CCN(C(=O)c2nn(C)c3c2CS(=O)(=O)c2ccccc2-3)CC1,8%,-1%,1%,0%,5%
Cn1nc(C(=O)N2CCN(c3ccccc3F)CC2)c2c1-c1ccccc1S(=O)(=O)C2,?,3%,2%,-7%,15µM*!
Cc1ccc(C)c(N2CCN(C(=O)c3nn(C)c4c3CS(=O)(=O)c3ccccc3-4)CC2)c1,23µM*,16%,2%,-6%,23µM*
O=C(NCCc1cccs1)C1CC(c2ccc([N+](=O)[O-])cc2)=NO1 (stereo not given),?,-30%,10%,-29%,?
COc1cccc(N2CCN(C(=O)c3ccc(=O)oc3)CC2C)c1 (stereo not given),-16%,2%,2%,5%,-3%
COC(=O)c1ccccc1NC(=O)CN(C)S(=O)(=O)c1ccc(OC)cc1,?,-2%,4%,12%,?
Cc1ccc(S(=O)(=O)N(C)CC(=O)Nc2ccccc2)cc1,-21%,-1%,1%,-1%,-13%
COc1ccc(S(=O)(=O)N(C)CC(=O)Nc2ccc(C)cc2)cc1OC,?,-2%,-8%,-17%,23µM*
CSc1cccc(NC(=O)CN(C)S(=O)(=O)c2ccc(C)cc2)c1,16µM*,-1%,7%,3%,?
COc1cc(NC(=O)CN(C)S(=O)(=O)c2ccc(C)cc2)cc(OC)c1,-24%,1%,3%,1%,-16%
COC(=O)c1ccccc1NC(=O)CN(C)S(=O)(=O)c1ccc(OC)c(C)c1,?,-1%,5%,.,23µM*
COc1ccc(/C=C/C(=O)Nc2nc(N)n(-c3ccccc3)n2)cc1,-28%,-1%,5%,-2%,?
COc1ccc(N=C2S/C(=C\c3ccc(C)s3)C(=O)N2CC(C)C)cc1,-29%,0%,4%,6%,-25%
CCCN1C(=O)/C(=C/c2cc(C)n(C)c2C)SC1=Nc1ccc(OC)cc1,9.2µM*,-16%,8%,-4%,13µM*

# Four entries from above, with each value named:
Cn1nc(C(=O)N2CCN(c3ccccc3)CC2)c2c1-c1ccccc1S(=O)(=O)C2
- TDP1 cell noCPT: ?
- miR-21 reporter: -3%
- TDP1 block: 4%
- uPA generation: -2%
- TDP1 cell CPT: ?

CCCN1C(=O)/C(=C/c2cc(C)n(C)c2C)SC1=Nc1ccc(OC)cc1
- TDP1 cell noCPT: 9.2µM*
- miR-21 reporter: -16%
- TDP1 block: 8%
- uPA generation: -4%
- TDP1 cell CPT: 13µM*

COc1ccc(S(=O)(=O)N(C)CC(=O)Nc2ccc(C)cc2)cc1OC
- TDP1 cell noCPT: ?
- miR-21 reporter: -2%
- TDP1 block: -8%
- uPA generation: -17%
- TDP1 cell CPT: 23µM*

Cc1cccc(N2CCN(C(=O)c3nn(C)c4c3CS(=O)(=O)c3ccccc3-4)CC2)c1C
- TDP1 cell noCPT: 16µM*
- miR-21 reporter: 0%
- TDP1 block: 5%
- uPA generation: 11%
- TDP1 cell CPT: 13µM*
